Experimental findings from ChEMBL document CHEMBL4049437, “Benzoisoquinolinediones as Potent and Selective Inhibitors of BRPF2 and TAF1/TAF1L Bromodomains” (J Med Chem, 2017) are described below.

The chains behind the UniProt entries cited, without tags or fusion partners.
UniProt P51532, whole entry: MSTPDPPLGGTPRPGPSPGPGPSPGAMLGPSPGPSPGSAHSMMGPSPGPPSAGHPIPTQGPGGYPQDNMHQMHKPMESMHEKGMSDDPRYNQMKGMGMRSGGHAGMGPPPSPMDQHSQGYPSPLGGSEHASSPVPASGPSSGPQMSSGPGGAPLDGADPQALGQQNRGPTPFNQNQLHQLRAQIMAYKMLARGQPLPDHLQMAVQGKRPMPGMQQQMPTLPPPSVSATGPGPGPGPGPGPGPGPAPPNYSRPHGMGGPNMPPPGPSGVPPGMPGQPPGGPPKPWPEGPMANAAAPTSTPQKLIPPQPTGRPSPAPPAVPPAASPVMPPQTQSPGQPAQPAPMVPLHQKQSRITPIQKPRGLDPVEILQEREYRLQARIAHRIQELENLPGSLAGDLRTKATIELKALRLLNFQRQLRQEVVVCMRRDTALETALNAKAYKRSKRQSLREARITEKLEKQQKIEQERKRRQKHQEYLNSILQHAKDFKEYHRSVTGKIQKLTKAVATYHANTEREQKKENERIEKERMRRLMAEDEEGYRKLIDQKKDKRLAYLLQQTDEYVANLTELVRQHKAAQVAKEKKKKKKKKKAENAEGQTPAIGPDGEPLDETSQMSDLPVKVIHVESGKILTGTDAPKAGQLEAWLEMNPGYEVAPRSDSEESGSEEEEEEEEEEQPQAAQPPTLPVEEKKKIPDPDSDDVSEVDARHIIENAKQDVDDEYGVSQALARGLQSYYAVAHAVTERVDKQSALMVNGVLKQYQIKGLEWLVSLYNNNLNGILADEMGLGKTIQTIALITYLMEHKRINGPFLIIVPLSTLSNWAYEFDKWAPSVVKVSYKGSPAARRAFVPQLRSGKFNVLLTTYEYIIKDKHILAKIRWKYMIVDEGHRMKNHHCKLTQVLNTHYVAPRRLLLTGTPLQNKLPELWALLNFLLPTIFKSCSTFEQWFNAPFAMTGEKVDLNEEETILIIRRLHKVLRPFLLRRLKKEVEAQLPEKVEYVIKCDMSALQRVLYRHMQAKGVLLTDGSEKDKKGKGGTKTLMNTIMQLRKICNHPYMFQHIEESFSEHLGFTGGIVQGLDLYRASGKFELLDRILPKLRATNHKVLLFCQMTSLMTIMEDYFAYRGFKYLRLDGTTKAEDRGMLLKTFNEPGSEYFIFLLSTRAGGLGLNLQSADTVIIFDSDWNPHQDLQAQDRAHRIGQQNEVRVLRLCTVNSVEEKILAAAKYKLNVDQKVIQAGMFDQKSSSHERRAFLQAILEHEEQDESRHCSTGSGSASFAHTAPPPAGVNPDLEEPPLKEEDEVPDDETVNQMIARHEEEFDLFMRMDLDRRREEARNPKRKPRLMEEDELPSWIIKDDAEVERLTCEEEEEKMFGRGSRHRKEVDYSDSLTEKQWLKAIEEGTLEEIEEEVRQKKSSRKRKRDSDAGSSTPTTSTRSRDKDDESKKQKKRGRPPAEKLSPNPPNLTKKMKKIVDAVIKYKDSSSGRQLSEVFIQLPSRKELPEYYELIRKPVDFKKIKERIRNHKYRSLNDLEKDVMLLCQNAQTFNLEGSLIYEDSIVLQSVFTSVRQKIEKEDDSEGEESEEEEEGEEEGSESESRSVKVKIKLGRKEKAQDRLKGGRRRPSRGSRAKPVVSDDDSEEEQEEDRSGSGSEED

The target in the experiment is SWI/SNF-related matrix-associated actin-dependent regulator of chromatin subfamily A member 4 (Homo sapiens) (UniProt P51532). The following applies: 10 uM.

Turning to `Cc1cc2c(cc1N1C(=O)c3cccc4c(CCCO)ccc(c34)C1=O)n(C)c(=O)n2C`, the deltaTm came out at 0.9 K.
